## Ab-14 light chain CDR variants: yeast mating affinities

Target: peptide PDVDLGDISGINAS, taken from heptad repeat 2 (HR2) of SARS-CoV-2 spike.

The variants keep the heavy chain, the linker and the frameworks of Ab-14 (scFv order VH, a (GGGGS)3 linker, VL).
VH: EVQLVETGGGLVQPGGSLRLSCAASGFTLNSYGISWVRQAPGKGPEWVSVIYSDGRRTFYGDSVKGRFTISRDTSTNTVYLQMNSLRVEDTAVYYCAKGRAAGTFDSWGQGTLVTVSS
VL: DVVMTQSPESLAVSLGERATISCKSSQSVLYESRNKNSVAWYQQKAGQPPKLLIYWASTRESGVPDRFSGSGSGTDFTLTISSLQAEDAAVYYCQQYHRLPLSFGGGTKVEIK

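Phage display of a naive human antibody library on the peptide gave the parent. This is the validation round: designs drawn from the data on random variants, tested in the same kind of assay. Their group label is 14L_GP_Gibbs (GP: Gaussian process model; Gibbs: Gibbs sampling; a sequence that several methods proposed may carry one label only). Affinity was read by AlphaSeq, a pooled yeast mating assay with surface-displayed partners. Pairs that bind mate more often; barcode pairs of the diploids are counted by sequencing. Each replicate has its own calibration line, from reference interactions of the BCL2 family. Mating was done six times.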

Substitutions are numbered in sequence along the VL above, starting at 1 (not Kabat). Numbers give log10(Kd / nM), so 0 is 1 nM and 3 is 1 µM. Smaller is tighter. Of ten entries with the parent sequence, four were seen in most replicates (averages 0.34 to 2.37), three in one and three in none, so single entries are noisy. The authors averaged sequences with at least three values out of six and counted those with two or fewer as poor binders. Nonspecific signal, from three strains lacking the peptide, appeared in 4% of pairings of all light chain designs, centred on 2.64 (5% of these signals below 1.59); values are not corrected for it. Also given: how often the same scFv was detected with the empty control strains, with their mean in brackets. Values of this round are not directly comparable with the first-round values of the same sequences.

{"changes": "S25F S26Q Q27Y V29E S33E K36Q W56G T59Q E61L", "replicates, log10 nM": "0.47 0.17 0.04 0.12 0.21 0.17", "control signals": "0/18"}
{"changes": "S25F L30G W56N S58Q E61M", "replicates, log10 nM": "0.25 0.38 0.21 0.42 0.25 0.39", "control signals": "2/18 (2.59)"}
{"changes": "Q27G S33D N35M K36V W56N T59Q E61L S62E", "replicates, log10 nM": "0.19 0.27 0.08 0.38 0.29 0.37", "control signals": "1/18 (2.17)"}
{"changes": "S25Y Q27F V29D Y31N W56E S62Q", "replicates, log10 nM": "0.25 -0.07 -0.06 -0.36 0.18 0.40", "control signals": "0/18"}
{"changes": "S25V S26M V29K L30E N35Q W56N S62L", "replicates, log10 nM": "-0.07 -0.26 -0.39 -0.33 -0.39 -0.07", "control signals": "2/18 (3.12)"}
{"changes": "S25I S26E L30H S33D K36I W56N T59Q E61Y Q96A", "replicates, log10 nM": "0.47 0.68 0.52 0.46 0.73 1.04", "control signals": "1/18 (2.40)"}
{"changes": "S25V V29T S33D R34G K36S W56N T59V", "replicates, log10 nM": "-0.01 -0.36 -0.37 -0.54 -0.34 -0.20", "control signals": "0/18"}
{"changes": "K24A S25F Q27G V29H K36L W56N S62E", "replicates, log10 nM": "-0.14 -0.14 -0.32 0.07 -0.04 -0.02", "control signals": "0/18"}
{"changes": "K24H S26Q L30P W56N T59L E61F", "replicates, log10 nM": "1.01 1.17 0.26 0.84 1.12 0.55", "control signals": "1/18 (1.71)"}
{"changes": "S25L S26E L30E Y31M N35W W56N", "replicates, log10 nM": "0.58 0.79 0.70 0.90 0.79 1.13", "control signals": "0/18"}
{"changes": "S25V S26P V29N S33A K36A S38N W56N E61L", "replicates, log10 nM": "0.06 -0.33 -0.31 -0.19 -0.24 -0.07", "control signals": "2/18 (1.94)"}
{"changes": "K24A S25Q Q27F V29H Y31G E32S W56E S62Q", "replicates, log10 nM": "0.49 0.14 0.20 0.05 0.26 0.33", "control signals": "0/18"}
{"changes": "Q27G Y31G S33D R34W W56Q T59K", "replicates, log10 nM": "0.57 0.71 0.75 0.54 1.19 1.06", "control signals": "1/18 (3.50)"}
{"changes": "S25I S26Q L30Y S33D R34L W56H E61L S62Q", "replicates, log10 nM": "0.32 0.42 0.20 0.12 0.30 0.25", "control signals": "1/18 (2.40)"}
{"changes": "S25L S28E L30E N35L W56N E61L S62E", "replicates, log10 nM": "0.28 0.28 0.13 0.07 0.21 0.32", "control signals": "1/18 (2.70)"}
{"changes": "S25M S26Q Q27N V29N L30G S38A W56Q", "replicates, log10 nM": "0.05 -0.03 -0.14 -0.04 -0.18 0.09", "control signals": "0/18"}
{"changes": "S25L S26E Q27M L30Q Y31L W56S S62R", "replicates, log10 nM": "0.60 0.06 0.25 0.04 0.40 0.31", "control signals": "0/18"}
{"changes": "S25I L30E S33Q N35D W56N E61C S62Q", "replicates, log10 nM": "0.21 0.19 0.00 -0.23 0.08 0.14", "control signals": "2/18 (2.23)"}
{"changes": "S25L S26E V29M K36S W56N E61M S62D S103M", "replicates, log10 nM": "0.44 0.28 0.07 0.25 0.34 0.56", "control signals": "1/18 (2.82)"}
{"changes": "S25L L30G Y31G W56E S62Q Q96D", "replicates, log10 nM": "-0.04 0.03 -0.06 -0.13 -0.02 -0.46", "control signals": "2/18 (2.18)"}
{"changes": "S25L Q27E L30E W56D S58Q E61Q", "replicates, log10 nM": "0.02 -0.03 -0.03 -0.24 -0.15 0.14", "control signals": "3/18 (3.32)"}
{"changes": "S25I S33Q N35A K36Q W56E", "replicates, log10 nM": "0.14 -0.30 -0.17 -0.20 -0.23 0.21", "control signals": "1/18 (3.32)"}
{"changes": "S25V Q27P V29Q L30E N37Q W56H T59Q S62E", "replicates, log10 nM": "-0.31 0.31 -0.69 -0.49 -0.38 -0.17", "control signals": "1/18 (2.12)"}
{"changes": "S25L S26M Q27G N35W S38A W56E", "replicates, log10 nM": "0.94 0.73 0.92 0.59 1.07 0.98", "control signals": "0/18"}

Extract of 2 entries:

{"changes": "S25I S26E L30H S33D K36I W56N T59Q E61Y Q96A", "replicates, log10 nM": "0.47 0.68 0.52 0.46 0.73 1.04", "control signals": "1/18 (2.40)"}
{"changes": "S25M S26Q Q27N V29N L30G S38A W56Q", "replicates, log10 nM": "0.05 -0.03 -0.14 -0.04 -0.18 0.09", "control signals": "0/18"}

Data: MIT Lincoln Laboratory AlphaSeq set, Li et al. 2023, doi:10.1038/s41467-023-39022-2, as distributed in FLAb.